Test results from article PMC7970304, “The Effects of Apelin and Elabela Ligands on Apelin Receptor Distinct Signaling Profiles” (Frontiers in Pharmacology, 2021).

By UniProt entry, the sequences of proteins in these tests, tags left out. Where a name states a change or a piece, a line headed by the entry shows the natural chain unless it says otherwise.
UniProt P35414: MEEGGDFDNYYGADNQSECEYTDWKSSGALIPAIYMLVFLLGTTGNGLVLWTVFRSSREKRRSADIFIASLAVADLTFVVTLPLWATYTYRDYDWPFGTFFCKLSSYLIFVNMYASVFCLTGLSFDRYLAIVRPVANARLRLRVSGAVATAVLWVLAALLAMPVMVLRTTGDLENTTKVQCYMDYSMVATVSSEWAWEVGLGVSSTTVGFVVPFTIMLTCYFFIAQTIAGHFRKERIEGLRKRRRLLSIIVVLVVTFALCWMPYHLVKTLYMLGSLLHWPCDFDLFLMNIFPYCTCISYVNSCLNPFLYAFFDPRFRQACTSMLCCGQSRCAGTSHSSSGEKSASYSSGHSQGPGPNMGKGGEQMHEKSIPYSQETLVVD

Tests used:
[1] = tested on: APJ–GRK2 interaction; experiment: BRET recruitment of GRK2 to APJ; type: cell-based; settings: HEK293, APJ-Rluc + GRK2-GFP2; BRET at 10 min; mean ± SEM, four independent experiments
Experimental: (§1) To detect the potencies of different peptide ligands for APJ in living cells, real-time kinetic bioluminescence resonance energy transfer (BRET) assays were carried out as follows. HEK293 cells were grown to 80–90% confluence in 24-well plates and transiently transfected with various Rluc-, EYFP-, or Venus-tagged constructs ([Chen et al., 2014]; [Liu et al., 2016]). Approximately 36 h after transfection, the long-acting luciferase substrate EnduRen (E6481, Promega, Beijing Biotech Co., Ltd.) was added to each well at a final concentration of 60 μM and cells were incubated for 2 h at 37°C in a 5% CO2 incubator. BRET experiments were carried out using a Mithras LB941 plate reader (Berthold Technologies, Bad Wildbad, Germany) with three filters: a Rluc filter (400–475 nm), a Venus filter (515–575 nm) and an EGFP filter (500–550 nm) ([Liu et al., 2016]; [Ji et al., 2017]). The BRET ratio was calculated as the ratio of the emission at 535 ± 30 nm to that at 485 ± 20 nm. The results are expressed as the mBRET (mBRET = 1,000 × BRET ratio) ([Pfleger et al., 2006a]; [Pfleger et al., 2006b]). […]
(§2) HEK293 cells were transiently co-transfected with the designated Rluc and GFP2 or Venus or EYFP-labeled constructs. […] Kinetic-response and dose-response curve of the recruitment of GRKs or β-arrestin 1 and β-arrestin 2 or AP2 to the APJ by six peptides measured by BRET. […]

[2] = tested on: APJ–GRK5 interaction; experiment: BRET recruitment of GRK5 to APJ; type: cell-based; settings: HEK293, APJ-Rluc + GRK5-GFP2; BRET at 10 min; mean ± SEM, four independent experiments
Experimental: as §1, §2

[3] = tested on: APJ–β-arrestin 1 interaction; experiment: BRET recruitment of β-arrestin 1 to APJ; type: cell-based; settings: HEK293, APJ-Venus + β-arrestin1-Rluc; BRET at 15 min; mean ± SEM, four independent experiments
Experimental: as §1, §2

[4] = tested on: APJ–β-arrestin 2 interaction; experiment: BRET recruitment of β-arrestin 2 to APJ; type: cell-based; settings: HEK293, APJ-Venus + β-arrestin2-Rluc; BRET at 15 min; mean ± SEM, four independent experiments
Experimental: as §1, §2

[5] = biological target: Apelin receptor (APJ) (UniProt P35414); experiment: radioligand binding; competition binding: HEK-293/APJ membrane preparation 20 μg/well, 0.1 nM [125I]-apelin-13, test peptides in 5-fold dilutions starting at 10 µM; 50 mM HEPES pH 7.4, 5 mM MgCl2, 1 mM CaCl2, 0.2% BSA; 30°C, 2 h; Ki calculated from IC50

| Compound | LogEC50, GRK2 [1] | LogEC50, GRK5 [2] | LogEC50, β-arrestin 1 [3] | LogEC50, β-arrestin 2 [4] | Ki [5] [nM] | pKi [5] |
| --- | --- | --- | --- | --- | --- | --- |
| CSCC[C@H](NC(=O)[C@@H]1CSSC[C@H](NC(=O)[C@H](CC(N)=O)NC(=O)[C@H](Cc2c[nH]cn2)NC(=O)[C@H](CCCCN)NC(=O)[C@H](CCCNC(=N)N)NC(=O)[C@@H](N)CC(C)C)C(=O)N[C@@H](CC(C)C)C(=O)N[C@@H](CCC(N)=O)C(=O)N[C@@H](CCCNC(=N)N)C(=O)N[C@@H](CCCNC(=N)N)C(=O)N1)C(=O)N1CCC[C@H]1C(=O)N[C@@H](CC(C)C)C(=O)N[C@@H](Cc1c[nH]cn1)C(=O)N[C@@H](CO)C(=O)N[C@@H](CCCNC(=N)N)C(=O)N[C@H](C(=O)N1CCC[C@H]1C(=O)N[C@@H](Cc1ccccc1)C(=O)N1CCC[C@H]1C(=O)O)C(C)C [Elabela-21] | −7.473 ± 0.1371 | −7.233 ± 0.2301 | −7.183 ± 0.061 | −7.175 ± 0.14 |  |  |
| Apelin-17 (peptide) |  |  |  |  | 4.65 | 8.33 |
